The values that follow come from patent US7833553B2, “Sulfur-containing proanthocyanidin oligomer compositon and process for producing the same” (Amino Up Chemical Co. Ltd., priority 2003, dated 2010).

The series concerns potassium bromate-induced acute kidney failure, Wistar rats. The series can be described thus: Rat model of potassium bromate-induced acute kidney failure. The class given is in vivo. The settings on record: 10 mg/kg oral daily for 7 days, Day 0. How it is done:
In order to elucidate how high the antioxidant capacity of Substance 1 is as compared with other antioxidant polyphenol materials, comparative tests were performed on rat models of potassium bromate-induced acute kidney failure.
Wistar rats (male, 12 weeks in age) were divided as follows.
Potassium bromate was intraperitoneally administered in a single dose of 65 mg/kg body weight. Substance 1, Substance 5, and each comparative substance were orally administered every day once a day in a dose of 10 mg/kg body weight before 1 week (Day −7) from start (Day 0) of the administration of potassium bromate up until the day after Day 0. At the day of administration of potassium bromate, the substances were administered 30 minutes before or after the administration of potassium bromate. On Day −7, 0, and 2, blood was collected from the cervical vein and the polyphenol level, lipid peroxide level, TEAC, urea nitrogen level, and creatinine level in the blood were measured.
Since the effects of Substance 1 and each comparative substance on potassium bromate-induced acute kidney failure are attributable to antioxidating action, blood polyphenol level, blood antioxidant capacity (TEAC), and blood lipid peroxide level as indicator of antioxidation, and blood urea nitrogen level and blood creatinine level as indicators of clinical outcome in kidney failure were examined. […]

For the substance catechin [Comparative Substance 2], the blood polyphenol level entry is reported as “followed by Comparative Substance 2 group”.
